Measurements reported in patent US4543256A, “(-)-10,1L Methylenedioxy-N-N-propylnoraporphine and methods employing it for inhibiting the effects of epileptic seizures and for prevention and treatment of duodenal ulcers” (Northeastern University, priority 1982, dated 1985).

Test system: duodenal ulcers
Test: Cysteamine-induced duodenal ulcer in the rat
Settings: once daily for seven days before cysteamine-hydrochloride

CCCN1CCc2cccc3c2[C@H]1Cc1ccc2c(c1-3)OCO2 [MDO-NPA, (-) 10, 11-methylenedioxy-N-n-propylnoraporphine-HCl]
dose effective in preventing ulcers: 100 micrograms per hundred grams of body weight

Where a name gives a salt, the structure may show the parent alone.
